Experiments:
[1] = tested on: RPE1 (normal human immortalized retinal pigment epithelial cell line); experiment: MTT toxicity/selectivity, normal RPE1 cells; conditions: read-out: IC50, (µM) ± SEM, RPE1
[2] = tested on: A431 (skin/squamous) cancer cell line; experiment: MTT antiproliferation, A431; conditions: for Selectivity index (SI), A431: SI = IC50 of RPE1/IC50 of A431; for IC50: read-out: IC50, (µM) ± SEM, A431, MTT, 72 h
[3] = tested on: HCT116 (colon) cancer cell line; experiment: MTT antiproliferation, HCT116; conditions: for Selectivity index (SI), HCT116: SI = IC50 of RPE1/IC50 of HCT116; for IC50: read-out: IC50, (µM) ± SEM, HCT116, MTT, 72 h
[4] = tested on: MCF7 (breast) cancer cell line; experiment: MTT antiproliferation, MCF7; conditions: for Selectivity index (SI), MCF7: SI = IC50 of RPE1/IC50 of MCF7; for IC50: read-out: IC50, (µM) ± SEM, MCF7, MTT, 72 h
p53 = p53 level/activation (ELISA) in MCF7; conditions: ratio of % activation
MDM2 = MDM2 (Homo sapiens, UniProt Q00987); experiment: MDM2 level/inhibition (ELISA) in MCF7; conditions: ratio of % inhibition
topo-I = conditions: read-out: IC50 of Dxd, topo-I inhibitor; reference standard; cited from earlier work

By UniProt entry, the sequences of proteins in these tests, tags left out.
UniProt Q00987, whole entry, looked up: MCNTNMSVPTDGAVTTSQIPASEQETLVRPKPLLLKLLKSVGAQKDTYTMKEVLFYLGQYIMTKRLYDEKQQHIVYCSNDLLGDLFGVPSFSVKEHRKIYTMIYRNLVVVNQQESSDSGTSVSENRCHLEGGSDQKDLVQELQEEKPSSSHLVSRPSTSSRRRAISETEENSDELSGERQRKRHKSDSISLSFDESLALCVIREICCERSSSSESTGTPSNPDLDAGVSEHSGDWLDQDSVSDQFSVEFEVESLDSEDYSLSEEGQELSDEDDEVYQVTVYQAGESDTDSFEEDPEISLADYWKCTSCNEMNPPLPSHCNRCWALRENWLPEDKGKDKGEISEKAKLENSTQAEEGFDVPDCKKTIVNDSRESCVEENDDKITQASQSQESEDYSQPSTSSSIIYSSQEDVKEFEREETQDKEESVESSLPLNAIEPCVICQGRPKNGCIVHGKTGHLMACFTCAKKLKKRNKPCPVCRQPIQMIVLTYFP

SMILES	IC50 [1]	Selectivity index (SI), A431 [2]	IC50 [2]	Selectivity index (SI), HCT116 [3]	IC50 [3]	Selectivity index (SI), MCF7 [4]	IC50 [4]	p53 activation fold relative to doxorubicin (p53)	Potency fold relative to 5-fluorouracil, A431 ([2]; ratio of IC50 values)	Anti-MDM2 potency fold relative to doxorubicin (MDM2)	Potency fold relative to 5-fluorouracil, HCT116 ([3]; ratio of IC50 values)	Potency fold relative to sunitinib, HCT116 ([3]; ratio of IC50 values)	Effectiveness fold relative to 5-fluorouracil, MCF7 ([4]; ratio of IC50 values)	Effectiveness fold relative to sunitinib, MCF7 ([4]; ratio of IC50 values)	IC50 (topo-I)
CCOP(=S)(OCC)N1C/C(=C\c2ccc(F)cc2)C(=O)/C(=C/c2ccc(F)cc2)C1	7.4 µM	1.38	5.36 µM	4.58	1.62 µM	4.21	1.76 µM	–	–	–	–	–	–	–	–
CCOP(=S)(OCC)N1C/C(=C\c2ccc(C)cc2)C(=O)/C(=C/c2ccc(C)cc2)C1	> 25 µM	> 4.79	5.22 µM	> 11	2.28 µM	> 10.9	2.29 µM	–	–	–	–	–	–	–	–
CCOP(=S)(OCC)N1C/C(=C\c2ccc(OC)cc2)C(=O)/C(=C/c2ccc(OC)cc2)C1	> 25 µM	–	> 25 µM	–	> 25 µM	> 2.22	11.3 µM	–	–	–	–	–	–	–	–
CCOP(=S)(OCC)N1C/C(=C\c2cc(OC)c(OC)c(OC)c2)C(=O)/C(=C/c2cc(OC)c(OC)c(OC)c2)C1	2.11 µM	1.93	1.1 µM	1.09	1.94 µM	1.95	1.08 µM	1.5 fold	21 fold	1.55 fold	–	–	–	–	–
CCOP(=S)(OCC)N1C/C(=C\c2cccs2)C(=O)/C(=C/c2cccs2)C1	> 25 µM	–	> 25 µM	–	> 25 µM	–	> 25 µM	–	–	–	–	–	–	–	–
CCOP(=S)(OCC)N1C/C(=C\c2cccc(Cl)c2)C(=O)/C(=C/c2cccc(Cl)c2)C1	3.06 µM	1.05	2.92 µM	2.12	1.45 µM	4.7	0.65 µM	–	–	–	14 fold	6.7 fold	4.8 fold	6.1 fold	–
CCOP(=S)(OCC)N1C/C(=C\c2cccc(OC)c2)C(=O)/C(=C/c2cccc(OC)c2)C1	3.18 µM	1.08	2.94 µM	1.83	1.74 µM	2.01	1.58 µM	–	–	–	–	–	–	–	–
CCOP(=S)(OCC)N1C/C(=C\c2ccccc2OC)C(=O)/C(=C/c2ccccc2OC)C1	10.3 µM	3.94	2.61 µM	4.57	2.25 µM	2.46	4.19 µM	–	–	–	–	–	–	–	–
CC[C@@]1(O)C(=O)OCc2c1cc1n(c2=O)Cc2c-1nc1cc(F)c(C)c3c1c2[C@@H](NC(=O)CO)CC3	–	–	–	–	–	–	–	–	–	–	–	–	–	–	400 nM
CCOP(=S)(OCC)N1C/C(=C\c2ccc(OC)c(OC)c2)C(=O)/C(=C/c2ccc(OC)c(OC)c2)C1	1.58 µM	1	1.57 µM	1.08	1.46 µM	1.06	1.48 µM	–	–	–	–	–	–	–	–
CCOP(=S)(OCC)N1C/C(=C\c2ccccc2)C(=O)/C(=C/c2ccccc2)C1	4.31 µM	0.27	16 µM	2.06	2.09 µM	1.59	2.71 µM	–	–	–	–	–	–	–	–
CCOP(=S)(OCC)N1C/C(=C\c2ccc(Br)cc2)C(=O)/C(=C/c2ccc(Br)cc2)C1	2.38 µM	1.23	1.93 µM	1.49	1.6 µM	1.97	1.21 µM	–	–	–	–	–	–	–	–
CCOP(=S)(OCC)N1C/C(=C\c2ccc(Cl)cc2)C(=O)/C(=C/c2ccc(Cl)cc2)C1	2.46 µM	1.31	1.87 µM	1.66	1.48 µM	1.93	1.27 µM	–	–	–	–	–	–	–	–

— paper PMC12627723, “Antineoplastic 4-piperidone-1-phosphonothioates with potential multi-targeted inhibitory properties” (Scientific Reports, 2025)
